Details in all cases: Swiss albino, 5 mg/kg
For assay [1], the species on record is Mus musculus.
The species named for assay [2] is Mus musculus. The source holds these as a separate data set.
For assay [3], the species on record is Mus musculus. This is another data set of the same source.
The species entered for assay [4] is Mus musculus. This is another data set of the same source.
The species entered for assay [5] is Mus musculus. The source holds these as a separate data set.
The species entered for assay [6] is Mus musculus. This is another data set of the same source.
Assay [7] is filed under the species Mus musculus. The source holds these as a separate data set.
Assay [8] is filed under the species Mus musculus. This is another data set of the same source.
The species entered for assay [9] is Mus musculus. This is another data set of the same source.
The species named for assay [10] is Mus musculus. This is another data set of the same source.
The species entered for assay [11] is Mus musculus. The source holds these as a separate data set.

Regarding `Br.CCCN(CCC)C1CCc2cccc(O)c2C1` (stereo unspecified), the deltaT in the assay listed under Mus musculus [1] is -1.3 °C; in the assay listed under Mus musculus [2], -0.5 °C; in the assay listed under Mus musculus [3], -0.8 °C; in the assay filed under Mus musculus [4] it was -0.5 °C; in the assay listed under Mus musculus [5], -0.1 °C; in the assay listed under Mus musculus [6] it was -0.2 °C. Moreover, the deltaT in the assay filed under Mus musculus [7] is -1.6 °C; in the assay filed under Mus musculus [8], -0.1 °C; in the assay filed under Mus musculus [9], -1 °C; in the assay listed under Mus musculus [10], -1.6 °C; in the assay filed under Mus musculus [11], -0.1 °C.
